# Values quoted from earlier work, collected in patent publication US20150037832A1, “METHODS OF FACILITATING THE BIOCONVERSION OF CRUDE BIODIESEL-DERIVED GLYCEROL BY MICROORGANISMS” (priority 2011, published 2015).
# Tested on: Clostridium pasteurianum ATCC 6013
# Conditions: related art statement; cited from earlier work
substance,measurement,value
butanol,concentration at which butanol becomes toxic to the cells,2%
